# Results from patent US4386077A (Made Italiana s.r.l, priority 1981, dated 1983).
# Assay: Serum kinetics and absolute bioavailability of ^14 C-labelled CDP-choline and "ASONIC" after i.v. and oral administration in Cynomolgus monkeys
# Assay type: in vivo, Cynomolgus monkey
# Description: From the end of the curves serum concentration/time, it was possible to calculate the constant of the apparent elimination speed from the organism as well as the relative half-life. These values were utilized in calculating the AUC T30 hours →T.infin. for the total of the curves concentration/time in the same animal. The AUC To →T30 hrs was calculated by means of the trapezium methods. […] For each dosage, a randomized cross-over procedure was used. Seriated blood samples were collected until 30 hours after each administration. From the single curves concentration/time it was possible to calculate the AUC To →T30 hrs. After each administration, including the intravenous one, urine was collected at the following time intervals: 0-24 hours, 24-48 hours and 48-72 hours.
smiles,measurement,setting,value
"C[N+](C)(C)CCOP(=O)(O)OP(=O)([O-])OC[C@H]1O[C@@H](n2ccc(N)nc2=O)[C@H](O)[C@@H]1O [CDP-choline, cytidine diphosphocholine]",Serum concentration,"monkey no. 1, 200 mg/kg per os, 4 hr",172 DPM/ml
same,Serum concentration,"monkey no. 1, 200 mg/kg per os, 30 hr",385 DPM/ml
same,Serum concentration,"monkey no. 2, 200 mg/kg per os, 4 hr",135 DPM/ml
